In one series the test system is soybean. Nature of the series: Pot demonstration of safening in soybean (FIG. 5). In kind it is in vivo. The procedure: This evidences a very unique safening interaction of fluridone plus PPO-inhibitors by crop species without the interaction causing a similar safening effect on the weed. […] FIG. 5 illustrates the safening effect of the fluridone and flumioxazin combination on soybean. […] The pot on the right, soybeans were treated with both fluridone and flumioxazin, with the resulting plants having no bleaching, while still maintaining significant weed control.

The test system of the next series is soybean plants. Nature of the series: Example 3 growth chamber trial, pre-emergent application on soybean. In kind it is in vivo. Conditions: fluridone alone, pre-emergent (FIG. 10). The procedure: (§1) 0.1 L conical assay tubes were planted with a cotton or soybean seed in a sample of sandy loam soil. Seven tubes were prepared for each herbicide application rate. Application of a herbicide composition was performed after planting the seed and prior to the plant's emergence from the soil (i.e., pre-emergent or PRE). Approximately 0.15 inches of water was applied to each pot four hours after application. […] The greenhouse was maintained at 26±5° C. during the day and 11±1° C. during the night.

A further series concerns cotton plants. Nature of the series: Example 3 growth chamber trial, pre-emergent application on cotton. It is filed as in vivo. Conditions: 0.2 lb/A fluridone, seven tubes. As for the experimental part: as §1
Series [1] concerns sweet almond (Prunus dulcis). Description: Example 6 field trials: almond tolerance. In kind it is in vivo. As for the experimental part: Field trials were conducted in California to determine sweet almond (Prunus dulcis) tolerance to fluridone and efficacy of fluridone in an irrigated orchard environment. Trial locations included a two-year old almond stand in Kerman, Calif. and a six-year old stand in Shafter, Calif. The soil in both locations is classified as a sandy loam. Applications prior to emergence of weeds (PRE) of herbicides were made in the month of January in Kerman and in the month of January in Shafter. Herbicide treatments in both locations included fluridone applied at 0.1 lb/ac (about 11.25 kg/km^2), 0.2 lb/ac (about 22.5 kg/km^2), 0.4 lb/ac (about 45 kg/km^2), and 0.8 lb/ac (about 90 kg/km^2) and flumioxazin at 0.38 lb/ac (about 42.75 kg/km^2)(Table 9). Rainfall (0.32 in (about 0.813 cm)) and irrigation (1.5 in (about 3.81 cm)) one day after PRE applications were used to incorporate herbicides into the soil at the Kerman and Shafter locations, respectively. […] Visual evaluations of crop injury and weed control were made monthly on a 0 to 100% scale. Postemergent (POST) broadcast applications of a non-selective, contact herbicide was broadcast across all treatments in Kerman prior to the 90 days after treatment and 119 days after treatment (DAT) ratings. Thus, data from those ratings dates was not evaluated. No POST applications were made in Shafter.

For series [2], the system named is 'Thompson' grape (Vitis vinifera). Nature of the series: Example 7 field trials: grape tolerance. In kind it is in vivo. Conditions: PRE application, Kerman and Kingsburg. From the text: Trials were placed in grape vineyards located in Kerman and Kingsburg, Calif. The soil in both locations is classified as a sandy loam. Preemergent herbicide applications were made in the month of January in Kerman and in the month of March in Kingsburg. Herbicide treatments in both locations included fluridone applied at 0.1 lb/ac (about 11.25 kg/km^2), 0.2 lb/ac (about 22.5 kg/km^2), 0.4 lb/ac (about 45 kg/km^2), and 0.8 lb/ac (about 90 kg/km^2) and flumioxazin at 0.38 lb/ac (about 42.75 kg/km^2) (Table 9, supra). Additionally, indaziflam applied at 0.065 lb/ac was included at the Kingsburg site. […] Visual evaluations of crop injury and weed control were made monthly on a 0 to 100% scale. Cultivation occurred in the row centers at the Kerman location following the 58 DAT evaluations, and therefore, the Kerman results following 58 DAT were not evaluated. No cultivation occurred in Kingsburg during the trial period.

Series [3] concerns walnut trees (Chandler variety). Nature of the series: Example 11 walnut orchard field trial: crop tolerance. In kind it is in vivo, English Walnut. Conditions: dormant 4th year walnut orchard. As for the experimental part:
A field trial was performed in a dormant 4th year walnut orchard (Chandler variety) located near Stockton, Calif. The trial was initiated in December for weed efficacy studies and crop tolerance studies. Plots were about 8 feet by about 18 feet (about 2.43 meters by about 5.49 meters) with one tree per plot arranged in a randomized complete block design with three replications. Fluridone, flumioxazin, Roundup, and glufosinate ammonium were tested.

For series [4], the system named is nonpareil almond. Nature of the series: Example 12 Arbuckle almond orchard: crop safety. It is filed as in vivo. Conditions: any application rates. As for the experimental part: (§2) A field trial was conducted in northern California for weed control and safety in one peach orchand and two almond orchards. The herbicide applications were made between January and February when the tree crops were dormant.
Weed control and crop safety were evaluated at approximately 1, 2, and 3 months after treatment. Weed pressure was fairly heavy, and uniform over the trial site. Populations of hare barley, annual sowthistle, black medic, chickweed, and redstem filaree were recorded.

Series [5] has as its system nonpareil almond. Nature of the series: Example 12 UC Davis almond orchard: crop safety. In kind it is in vivo. Conditions: 1 to 5 months after treatment. As for the experimental part:
as §2
Weed control and crop safety were evaluated approximately 1, 2, 3, 4, and 5 months after treatment with fluridone.

A further series concerns peach. Nature of the series: Example 12 Marysville peach orchard: crop safety. In kind it is in vivo. The conditions noted are these: 1 to 5 months after treatment. The procedure:
as §2
Crop safety was evaluated approximately 1, 2, 3, 4, and 5 months after treatment with fluridone.

Series [6] concerns "Cara Cara" orange (Citrus sinensis). Description: Example 8 field trial: orange tolerance. Conditions: Elderwood, PRE application, trial period.

Turning to “1-methyl-3-phenyl-5-[3-(trifluromethyl)phenyl]-4(1H)-pyridone [fluridone]”, the bleaching entry in the series with soybean is “causes bleaching to the cotyledon”. Further, the percentage of chlorosis in the series on soybean plants was found to be 80%. Further, in the series on cotton plants, the “crop stand (number of viable plants)” value was “four surviving plants out of seven”. In addition, the phytotoxicity entry is “Phytotoxicity was not observed” in series [1] (Kerman, any PRE herbicide application); “Phytotoxicity was not observed” in series [2]; “did not result in phytotoxicity” in series [2] (listed as Fluridone); “did not contribute to phytotoxicity” in series [6]; “did not result in phytotoxicity” in [6] (listed as Fluridone). The same substance gave a greatest phytotoxicity in series [1] (Shafter, 158 and 180 DAT, 0.8 lb fluridone/ac, PRE) of 8.3%. The walnut tree tolerance entry in series [3] is listed as “no visual leaf symptoms or retarded tree growth”. Also, the phytotoxicity symptoms result in the series on nonpareil almond [4] is given as “no phytotoxicity symptoms were observed”; in the series with nonpareil almond [5], “no phytotoxicity symptoms were observed”; in the series on peach, “No phytotoxicitity symptoms were observed”.

The values are drawn from patent publication US11026423B2, “Herbicidal compositions and methods” (SePRO Corporation, priority 2013, dated 2021).
